The values that follow come from patent publication US8895585B2, “Nicotinamide derivative or salt thereof” (FUJIFILM Corporation, priority 2010, dated 2014).

Experiment [1] deals with THP-1 cells. Description: TNFα generation assay. Format: cell-based, human. How it is done:
THP-1 cells (2×10^5 cells/ml), which were human monocytoid cells, were cultured in the presence of 10 ng/ml IFN-γ (Roche) for 2 days, so that the cells were induced to differentiate into macrophage-like cells. The differentiation-induced THP-1 cells were recovered, and the cells (1×10^6 cell/ml) were then allowed to react with a predetermined concentration of test compound at room temperature for 30 minutes. On the other hand, 100 μl of human IgG (10 μg/ml, SIGMA-ALDRICH) diluted with PBS was added to a 96-well plate, and it was then incubated at room temperature overnight. Thereafter, the resultant was washed with PBS twice to produce a human IgG-coated plate. Subsequently, a cell solution that contained a compound was inoculated on the human IgG-coated plate (5×10^4 cells/well), and it was then cultured for 7 hours. Thereafter, the cultured solution was recovered, and the amount of TNFα secreted into the culture solution was then measured by the ELISA method (Roche/R & D Systems) or the AlphaLISA method (PerkinElmer).
In addition, the following are used in Table 22 to denote criteria for evaluating IC50 in TNFα generation assay. • A: Up to 65 nM • B: 65 to 130 nM • C: 130 to 200 nM

In experiment [2] the target is glutathione S-transferase (GST)-fused full-length human Syk protein (Homo sapiens, UniProt P43405). Description: Syk enzyme assay. As to the method: A glutathione S-transferase (GST)-fused full-length human Syk protein (Carna Biosciences), which had been generated using a Baculovirus expression system, was used in the Syk enzyme assay.
15 μl of a reaction solution (1.2 ng Syk, 20 mM HEPES, 10 mM MgCl2, 50 mM NaCl, 2 mM DTT, 0.05% BSA, pH 7.0) containing a Syk protein and a predetermined concentration of a test compound was shaken for 2 minutes, and it was then left at rest at room temperature for 13 minutes. Thereafter, 5 μl of Biotin-EDPDYEWPSA-NH2 (final concentration: 0.4 μM) serving as a substrate peptide and 5 μl of ATP (final concentration: 27 μM) were added to the reaction solution, and the obtained mixture was then shaken for 2 minutes. The reaction solution was further left at rest at room temperature for 40 minutes, so as to carry out an enzyme reaction.
Thereafter, 50 μl of a reaction termination solution [5 μg/ml Streptavidin, 0.18 μg/ml PT66-K, 30 mM HEPES (pH 7.0), 150 mM KF, 75 mM EDTA, 0.15% BSA, 0.075% Tween20], which contained Streptavidin-Xlent (Cisbio) and Mab PT66-K (Cisbio), was added to the reaction solution to terminate the enzyme reaction. At the same time, the reaction solution was left at rest at room temperature for 1 hour, so as to carry out an antigen-antibody reaction. Thereafter, using EnVision (PerkinElmer), the time-resolved fluorescence was measured at 615 nm and 665 nm, so that the phosphorylation of the substrate peptide was measured.
In addition, the following are standards for evaluating IC50 of Syk-inhibitory activity used in Table 21. • A: Up to 10 nM • B: 10 to 50 nM • C: 50 to 100 nM • D: 100 to 1000 nM The set of numbers (XYZ-xyz) given in each Example number column indicates the corresponding Example number (Example XYZ-xyz) in Table 21.

Setting [3] is: read-out: IC50 in TNFα generation assay, Table 22.
[4] abbreviates: read-out: IC50 of Syk-inhibitory activity, Test Example 1.
Setting [5] is: read-out: IC50 of Syk-inhibitory activity, Test Example 1, tested form: HCl.
Setting [6] is: read-out: IC50 in TNFα generation assay, Table 22, tested form: HCl.

SMILES strings stand for the structures. Read-outs that look alike come from different tables or passages of the source.

For `COc1cc(Nc2nc(N[C@@H]3CCCC[C@@H]3N)c(F)cc2C(N)=O)ccn1`, the results for the IC50 in experiment [1] (setting [3]) and in experiment [2] (setting [4]) were 65 to 130 nM and < 10 nM, respectively.

On to `NC(=O)c1cc(Cl)c(N[C@@H]2CCCC[C@@H]2N)nc1Nc1cccc(-n2nccn2)c1`, for which the IC50 in experiment [1] (setting [3]) is 130 to 200 nM; in experiment [2] (setting [4]), < 10 nM.

As for `NC(=O)c1cc(F)c(N[C@@H]2CCCC[C@@H]2N)nc1Nc1ccc2c(cnn2CCN2CCOCC2)c1`, the IC50 in experiment [1] (setting [3]) was 130 to 200 nM; in experiment [2] (setting [4]), < 10 nM.

For the compound `NC(=O)c1cc(F)c(N[C@@H]2CCCC[C@@H]2N)nc1Nc1ccnc(N2CCOCC2)c1`, the IC50 in experiment [1] (setting [3]) was 130 to 200 nM; in experiment [2] (setting [4]), < 10 nM.

For the compound `NCCNc1nc(Nc2cccc3ncccc23)c(C(N)=O)cc1F`, the figures for the IC50 in experiment [1] (setting [3]) and in experiment [2] (setting [4]) were 65 to 130 nM and 10 to 50 nM, respectively.

For the compound `NCCNc1nc(Nc2cncc3ccccc23)c(C(N)=O)cc1F`, the IC50 in experiment [1] (setting [3]) was in the range of 65 to 130 nM; in experiment [2] (setting [4]), 10 to 50 nM.

With `CCCCOc1ccc(C(=O)Nc2cncc(Nc3nc(N[C@@H]4CCCC[C@@H]4N)c(F)cc3C(N)=O)c2)cc1` (relative stereo), the IC50 in experiment [2] (setting [5]) was in the range of 100 to 1000 nM.

With `COCCN(CCOC)c1ccc(Nc2nc(N[C@@H]3CCCC[C@@H]3N)c(F)cc2C(N)=O)cn1` (relative stereo), the IC50 in experiment [2] (setting [5]) fell in the range of 100 to 1000 nM.

With `COCCOc1cc(Nc2nc(N[C@@H]3CCCC[C@@H]3N)c(F)cc2C(N)=O)cc(-c2ccccc2)n1` (relative stereo), the IC50 in experiment [2] (setting [5]) lay in the range of 10 to 50 nM.

As for `COc1cc(Nc2nc(N[C@@H]3CCCC[C@@H]3N)c(F)cc2C(N)=O)cc(-c2ccccc2)n1` (relative stereo), the IC50 in experiment [2] (setting [5]) was < 10 nM.

In the case of `COc1ccc(C(=O)Nc2cncc(Nc3nc(N[C@@H]4CCCC[C@@H]4N)c(F)cc3C(N)=O)c2)cc1` (relative stereo), in experiment [2] (setting [5]), the IC50 was in the range of 10 to 50 nM.

In the case of `COc1ccc(Nc2nc(N[C@@H]3CCCC[C@@H]3N)c(F)cc2C(N)=O)c2cccnc12` (relative stereo), in experiment [2] (setting [5]), the IC50 was 50 to 100 nM.

Consider `COc1ccc2ncc(Nc3nc(N[C@@H]4CCCC[C@@H]4N)c(F)cc3C(N)=O)cc2c1` (relative stereo), for which the IC50 in experiment [1] (setting [3]) is < 65 nM; in experiment [2] (setting [4]), < 10 nM.

As to `COc1cccc(Nc2nc(N[C@@H]3CCCC[C@@H]3N)c(Cl)cc2C(N)=O)c1` (relative stereo), the figures for the IC50 in experiment [1] (setting [6]) and in experiment [2] (setting [5]) were 65 to 130 nM and < 10 nM, respectively.

Consider `Cc1ccc(C(=O)Nc2cncc(Nc3nc(N[C@@H]4CCCC[C@@H]4N)c(F)cc3C(N)=O)c2)cc1` (relative stereo), for which, in experiment [2] (setting [5]), the IC50 fell in the range of 10 to 50 nM.

For the compound `Cc1cncc(Nc2nc(N[C@@H]3CCCC[C@@H]3N)c(Cl)cc2C(N)=O)c1` (relative stereo), the IC50 was 65 to 130 nM in experiment [1] (setting [6]) and < 10 nM in experiment [2] (setting [5]).

On to `Cc1nc2cc(Nc3nc(N[C@@H]4CCCC[C@@H]4N)c(F)cc3C(N)=O)ccc2o1` (relative stereo), for which the IC50 in experiment [2] (setting [5]) lay in the range of 10 to 50 nM.

`Cn1cnc2ccc(Nc3nc(N[C@@H]4CCCC[C@@H]4N)c(F)cc3C(N)=O)cc21` (relative stereo): the IC50 in experiment [1] (setting [3]) was < 65 nM; in experiment [2] (setting [4]) it was < 10 nM.

For the compound `NC(=O)c1cc(F)c(N[C@@H]2CCCC[C@@H]2N)nc1Nc1cc(-c2ccccc2)nc(N2CCOCC2)c1` (relative stereo), in experiment [2] (setting [5]), the IC50 is < 10 nM.

Regarding `NC(=O)c1cc(F)c(N[C@@H]2CCCC[C@@H]2N)nc1Nc1ccc(N2C(=O)COc3ccccc32)nc1` (relative stereo), the IC50 in experiment [2] (setting [5]) lay in the range of 100 to 1000 nM.

Turning to `NC(=O)c1cc(F)c(N[C@@H]2CCCC[C@@H]2N)nc1Nc1ccc(N2CCCCC2)nc1` (relative stereo), the IC50 in experiment [2] (setting [5]) fell in the range of 50 to 100 nM.

With `NC(=O)c1cc(F)c(N[C@@H]2CCCC[C@@H]2N)nc1Nc1ccc2c(c1)OCCO2` (relative stereo), the IC50 in experiment [1] (setting [3]) lay in the range of 65 to 130 nM; in experiment [2] (setting [4]), 10 to 50 nM.

As to `NC(=O)c1cc(F)c(N[C@@H]2CCCC[C@@H]2N)nc1Nc1ccc2cncnc2c1` (relative stereo), the IC50 in experiment [1] (setting [3]) is < 65 nM; in experiment [2] (setting [4]), < 10 nM.

On to `NC(=O)c1cc(F)c(N[C@@H]2CCCC[C@@H]2N)nc1Nc1ccc2nccnc2c1` (relative stereo), for which the results for the IC50 in experiment [1] (setting [3]) and in experiment [2] (setting [4]) were < 65 nM and < 10 nM, respectively.

With `NC(=O)c1cc(F)c(N[C@@H]2CCCC[C@@H]2N)nc1Nc1ccc2scnc2c1` (relative stereo), the figures for the IC50 in experiment [1] (setting [3]) and in experiment [2] (setting [4]) were < 65 nM and < 10 nM, respectively.

Consider `NC(=O)c1cc(F)c(N[C@@H]2CCCC[C@@H]2N)nc1Nc1cccc2nsnc12` (relative stereo), for which the IC50 in experiment [2] (setting [5]) was < 10 nM.

With `NC(=O)c1cc(F)c(N[C@@H]2CCCC[C@@H]2N)nc1Nc1ccnc(OCCN2CCCC2)c1` (relative stereo), the IC50 in experiment [2] (read-out: IC50 of Syk-inhibitory activity, Test Example 1, tested form: 2HCl) was 10 to 50 nM.

As for `NC(=O)c1cc(F)c(N[C@@H]2CCCC[C@@H]2N)nc1Nc1cncc(C(=O)O)c1` (relative stereo), the IC50 in experiment [2] (setting [5]) was 50 to 100 nM.

For `NC(=O)c1cc(F)c(N[C@@H]2CCCC[C@@H]2N)nc1Nc1cncc(NC(=O)c2ccc(C(F)(F)F)cc2)c1` (relative stereo), the IC50 in experiment [2] (setting [5]) is 50 to 100 nM.

`NC(=O)c1cc(F)c(N[C@@H]2CCCC[C@@H]2N)nc1Nc1cncc(NC(=O)c2ccc(F)cc2)c1` (relative stereo): the IC50 in experiment [2] (setting [5]) was 10 to 50 nM.

Regarding `NC(=O)c1cc(F)c(N[C@@H]2CCCC[C@@H]2N)nc1Nc1cncc(NC(=O)c2ccccc2F)c1` (relative stereo), the IC50 in experiment [2] (setting [5]) lay in the range of 10 to 50 nM.

Take `NC(=O)c1cc(F)c(N[C@H]2CCCC[C@H]2N)nc1Nc1ccc(Cl)c(Cl)c1` (relative stereo): the IC50 in experiment [2] (setting [5]) is < 10 nM.

For the compound `NC(=O)c1cncc(Nc2nc(N[C@@H]3CCCC[C@@H]3N)c(F)cc2C(N)=O)c1` (relative stereo), the IC50 in experiment [2] (setting [5]) lay within 10 to 50 nM.

As for `Cc1cccc(Nc2nc(N[C@@H]3CCCC[C@@H]3N)c(F)cc2C(N)=O)c1` (relative stereo) [Example 2-3, 6-(cis-2-aminocyclohexylamino)-5-fluoro-2-((3-methyl-phenyl)amino)nicotinamide], the IC50 in experiment [2] (setting [4]) is < 10 nM.

Consider `NC(=O)c1cc(F)c(N[C@@H]2CCCC[C@@H]2N)nc1Nc1ccc(-c2ccccc2)nc1` (relative stereo) [Example 2-9, 6-(cis-2-aminocyclohexylamino)-5-fluoro-2-((6-phenylpyridin-3-yl)amino)nicotinamide], for which, in experiment [2] (setting [4]), the IC50 is 10 to 50 nM.

On to `COc1ccc(Nc2nc(N[C@@H]3CCCC[C@@H]3N)c(F)cc2C(N)=O)cn1` (relative stereo) [Example 2-10, 6-(cis-2-aminocyclohexylamino)-5-fluoro-2-((6-methoxypyridin-3-yl)amino)nicotinamide], for which the IC50 in experiment [2] (setting [4]) is 50 to 100 nM.

As for `Cc1cccc(Nc2nc(NCCN)c(F)cc2C(N)=O)c1` [Example 6-2, 6-((2-aminoethyl)amino)-5-fluoro-2-(3-methylphenylamino)nico-tinamide], in experiment [2] (setting [5]), the IC50 lay within 100 to 1000 nM.

Take `Cc1nc2ccc(Nc3nc(NCCN)c(F)cc3C(N)=O)cc2o1` [Example 6-23, 6-((2-aminoethyl)amino)-5-fluoro-2-((2-methylbenzo[d]oxazol-6-yl)amino)nicotinamide]: the IC50 in experiment [2] (setting [5]) is 10 to 50 nM.

Regarding `CC(=O)Nc1cccc(Nc2nc(NCCN)c(F)cc2C(N)=O)c1` [Example 6-24, 2-((3-acetylaminophenyl)amino)-6-((2-aminoethyl)amino)-5-fluoronicotinamide], the IC50 in experiment [2] (setting [5]) was 100 to 1000 nM.

With `Cn1ncc2ccc(Nc3nc(NCCN)c(F)cc3C(N)=O)cc21` [Example 6-27, 6-((2-aminoethyl)amino)-5-fluoro-2-((1-methyl-1H-indazol-6-yl)amino)nicotinamide], in experiment [2] (setting [5]), the IC50 lay within 100 to 1000 nM.

For `COc1cc(Nc2nc(N[C@@H]3CCCC[C@@H]3N)c(F)cc2C(N)=O)cc(OC)n1` [Example 006-114, 6-(((1R,2S)-2-aminocyclohexyl)amino)-2-((2,6-dimethoxypyridin-4-yl)amino)-5-fluoronicotinamide], the IC50 in experiment [2] (setting [4]) is < 10 nM.

Take `COc1cc(Nc2nc(NC(C(N)=O)C(C)C)c(F)cc2C(N)=O)cc(OC)c1` (centres unmarked) [Example 32, 6-(1-aminocarbonyl-2-methylpropylamino)-2-(3,5-dimethoxyphenylamino)-5-fluoro nicotinamide]: the IC50 in experiment [2] (setting [4]) was in the range of 50 to 100 nM.
